How the values were obtained:
[1] = molecular target: T1, human Nav1.3 sodium channels (Homo sapiens, UniProt Q9NY46); conditions: ref Wright et al. [2012]; cited from earlier work
[2] = tested on: sodium channels endogenously expressed in N1E-115 mouse neuroblastoma cells; conditions: cited from earlier work
[3] = plasma and brain concentrations of eslicarbazepine after ESL; format: in vivo, mouse; conditions: MES test, ESL 50 mg/kg p.o.
[4] = tested on: P-glycoprotein or multidrug resistance protein (MRP); conditions: mice; ref Almeida et al. [2009]; Bialer and Soares-da-Silva [2012]; cited from earlier work
[5] = molecular target: T1, human Nav1.3 sodium channels; assay: whole-cell patch clamp, Nav1.3 in CHO-K1 cells; format: cell-based; conditions: for Fast inactivation, individual shifts / Slow inactivation, individual shifts: 250 μmol/L, versus control (bath), mean ± SEM
[6] = tested on: rat NaV1.2 sodium channel; conditions: ref Pires et al. [2012]; cited from earlier work
[7] = 250 μmol/L, ref Hebeisen et al. [2014]

Sequences of proteins named here, by UniProt entry; tags and fusion partners are left off.
UniProt Q9NY46, whole entry: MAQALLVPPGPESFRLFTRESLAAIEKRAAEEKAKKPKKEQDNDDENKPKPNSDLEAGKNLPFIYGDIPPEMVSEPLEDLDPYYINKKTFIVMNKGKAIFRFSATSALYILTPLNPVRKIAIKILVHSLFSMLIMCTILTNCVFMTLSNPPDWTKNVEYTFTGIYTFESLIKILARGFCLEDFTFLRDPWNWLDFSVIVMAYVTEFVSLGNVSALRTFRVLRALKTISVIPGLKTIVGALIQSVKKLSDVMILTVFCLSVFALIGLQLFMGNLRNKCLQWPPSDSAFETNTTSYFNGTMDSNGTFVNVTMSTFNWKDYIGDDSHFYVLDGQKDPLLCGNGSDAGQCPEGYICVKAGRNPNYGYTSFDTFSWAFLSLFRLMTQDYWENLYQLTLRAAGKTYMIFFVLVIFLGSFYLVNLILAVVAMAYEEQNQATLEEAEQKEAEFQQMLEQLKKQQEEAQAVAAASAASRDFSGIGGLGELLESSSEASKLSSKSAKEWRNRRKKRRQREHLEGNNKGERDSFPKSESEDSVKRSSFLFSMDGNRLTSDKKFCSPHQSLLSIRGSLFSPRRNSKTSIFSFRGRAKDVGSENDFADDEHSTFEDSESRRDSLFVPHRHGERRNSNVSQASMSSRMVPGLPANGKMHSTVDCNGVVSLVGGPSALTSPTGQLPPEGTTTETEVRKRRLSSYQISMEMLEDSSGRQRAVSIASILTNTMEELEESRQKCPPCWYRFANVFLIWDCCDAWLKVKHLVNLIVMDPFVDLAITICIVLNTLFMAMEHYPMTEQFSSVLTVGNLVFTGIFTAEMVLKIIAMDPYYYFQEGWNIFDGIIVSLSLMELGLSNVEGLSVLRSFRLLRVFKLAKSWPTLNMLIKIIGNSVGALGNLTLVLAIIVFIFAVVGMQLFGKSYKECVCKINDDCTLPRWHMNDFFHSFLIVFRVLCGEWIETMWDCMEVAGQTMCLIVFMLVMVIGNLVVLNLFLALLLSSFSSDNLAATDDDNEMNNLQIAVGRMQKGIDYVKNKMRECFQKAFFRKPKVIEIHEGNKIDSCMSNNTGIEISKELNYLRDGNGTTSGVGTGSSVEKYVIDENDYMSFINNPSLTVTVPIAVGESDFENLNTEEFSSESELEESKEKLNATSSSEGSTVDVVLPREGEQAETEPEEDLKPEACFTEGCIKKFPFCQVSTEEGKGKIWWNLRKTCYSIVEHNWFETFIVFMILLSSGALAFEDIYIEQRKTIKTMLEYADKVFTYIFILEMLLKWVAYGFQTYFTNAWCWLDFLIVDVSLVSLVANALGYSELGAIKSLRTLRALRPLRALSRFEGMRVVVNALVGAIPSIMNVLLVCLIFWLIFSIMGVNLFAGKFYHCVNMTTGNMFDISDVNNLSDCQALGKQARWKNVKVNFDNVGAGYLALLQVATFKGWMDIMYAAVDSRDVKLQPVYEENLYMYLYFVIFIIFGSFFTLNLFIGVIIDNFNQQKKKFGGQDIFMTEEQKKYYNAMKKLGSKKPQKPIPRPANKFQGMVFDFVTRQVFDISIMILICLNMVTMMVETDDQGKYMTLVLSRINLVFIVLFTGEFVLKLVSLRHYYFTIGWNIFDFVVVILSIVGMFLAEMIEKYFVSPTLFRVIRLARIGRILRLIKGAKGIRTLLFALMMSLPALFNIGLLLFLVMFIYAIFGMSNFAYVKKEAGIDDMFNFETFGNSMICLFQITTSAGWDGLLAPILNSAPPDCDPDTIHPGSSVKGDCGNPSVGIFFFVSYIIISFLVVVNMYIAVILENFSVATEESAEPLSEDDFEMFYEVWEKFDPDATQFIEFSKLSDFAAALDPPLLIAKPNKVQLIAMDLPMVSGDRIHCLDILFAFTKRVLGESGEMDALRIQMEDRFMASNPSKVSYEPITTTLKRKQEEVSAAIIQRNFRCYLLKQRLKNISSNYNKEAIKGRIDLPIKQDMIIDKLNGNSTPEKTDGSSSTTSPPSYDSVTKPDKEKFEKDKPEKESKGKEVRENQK

SMILES | affinity for VGSCs in the resting state relative to CBZ and OXC [1] | affinity relative to CBZ and OXC in more depolarized conditions [1] | shift of V0.5, voltage dependence of the fast inactivation [2, 7] | shift of V0.5, voltage dependence of the slow inactivation [2, 7] | affinity for VGSC in the resting state relative to CBZ, OXC and R-licarbazepine ([2]; ref Hebeisen et al. [2011]) | affinity to the slow inactivated state relative to the resting state ([2]; ref Hebeisen et al. [2014]) | concentration in lipid fraction of brain relative to total brain volume [3] | concentration in organic fraction of brain relative to total brain volume [3] | brain-to-plasma concentration ratio after verapamil pretreatment [4] | Fast inactivation, individual shifts [5] | Slow inactivation, individual shifts [5] | Fast inactivation, individual shifts ([5]; listed as Eslicarbazepine) | Slow inactivation, individual shifts ([5]; listed as Eslicarbazepine) | affinity to the slow inactivated state relative to the resting state ([5]; IC50 in slow inactivated versus resting state) | affinity relative to OXC and CBZ in more depolarized conditions [6]
NC(=O)N1c2ccccc2C[C@H](O)c2ccccc21 [eslicarbazepine] | about twofold lower than that of CBZ and OXC | ∼threefold lower than CBZ and OXC | not influenced | −31.2 mV | 15- to fivefold lower | 5.9 times | 8.3 times | 4.6 times | failed to affect the eslicarbazepine brain-to-plasma concentration ratio | −0.83 mV | −14.40 mV | −0.83 ± 1.04 mV | −14.40 ± 2.88 mV | 2.6 times | ∼two- to threefold lower than that of OXC and CBZ
NC(=O)N1c2ccccc2C[C@@H](O)c2ccccc21 [R-licarbazepine, reference compound] | about twofold lower than that of CBZ and OXC |  |  |  |  |  |  |  | markedly increased the R-licarbazepine brain-to-plasma ratio |  |  |  |  |  | 

Source: PMC4448990 (Pharmacology Research & Perspectives, 2015)
